Results from PMC5467147, “Identification of a Peptide for Systemic Brain Delivery of a Morpholino Oligonucleotide in Mouse Models of Spinal Muscular Atrophy” (Nucleic Acid Therapeutics, 2017).

Protein sequences, listed by entry. Tags and fused reporters are not part of them. Lines headed by an entry give the natural chain unless they say otherwise; changes in a name come on top.
UniProt P02649: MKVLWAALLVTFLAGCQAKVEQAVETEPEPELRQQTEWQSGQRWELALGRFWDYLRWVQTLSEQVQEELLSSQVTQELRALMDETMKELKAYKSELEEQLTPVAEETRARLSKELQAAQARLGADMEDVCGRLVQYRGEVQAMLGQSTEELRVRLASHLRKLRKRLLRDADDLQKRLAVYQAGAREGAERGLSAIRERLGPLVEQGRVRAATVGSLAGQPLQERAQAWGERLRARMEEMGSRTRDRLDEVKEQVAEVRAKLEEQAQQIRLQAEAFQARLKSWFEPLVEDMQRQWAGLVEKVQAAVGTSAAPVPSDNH

Tested on: Dmd pre-mRNA exon 23 in H2K mdx myotubes
Experiment: Mouse exon skipping mdx cell assay (DMD exon-23 skipping, nested RT-PCR)
Details: P-PMO (25-mer Dmd PMO) 1 and 5 μM, 4 h serum-free Opti-MEM then 20 h, at least three independent experiments

## ApoE (141–150)-PMO: ApoE (141–150) peptide conjugated by its C-terminus to the 25-mer Dmd exon-23 PMO (LRKLRKRLLR-{Dmd exon‑23 PMO}; also: C-terminal conjugate to 25-mer Dmd exon-23 PMO; UniProt P02649 159-168, looked up, fragment)
  exon-23 skipping activity compared with naked PMO: highest exon-skipping activity in mdx cells that was statistically greater than that for PMO alone

No end group written: not given here. Dmd exon‑23 PMO = 25-mer Dmd exon-23 PMO conjugated to the peptide C-terminus
